In brackets after ≈: the same amount, converted by molar mass. Structures can show the parent of a compound that is named as a salt. Where two headings read alike, the source gives them in different places.
System: E. granulosus PSCs
Experiment: microbe, parasite or virus in culture
Conditions: Echinococcus granulosus; for MIC90 / killing at 0.5 µM / killing at 2 µM / killing at 10 µM / killing at 50 µM: 72 h; for MIC90: read-out: MIC90 (minimum inhibitory concentration causing a 90% death of PSCs); for killing at 0.5 µM: read-out: Anti-echinicoccus activity, Dose confirmaiton 0.5uM, second-stage dose-response, 0.5 μM, PSCs; for killing at 2 µM: read-out: Anti-echinicoccus activity, Dose confirmaiton 2uM, second-stage dose-response, 2 μM, PSCs; for killing at 10 µM: read-out: Anti-echinicoccus activity, Dose confirmaiton 10uM, second-stage dose-response, 10 μM, PSCs
[1] = read-out: Anti-echinococcus activity % of death, 0.5uM
[2] = read-out: Anti-echinococcus activity % of death, 10uM
[3] = read-out: Anti-echinococcus activity % of death, 50uM
[4] = read-out: Anti-echinococcus activity % of death, 2uM
[5] = read-out: Anti-echinococcus activity % of death
[6] = read-out: Anti-echinicoccus activity, Dose confirmaiton 50uM, second-stage dose-response, 50 μM, PSCs
[7] = read-out: Anti-echinicoccus activity, Initiate hits 50uM, primary screen, 50 μM, PSCs, 3-day incubation, PI staining (death rate of PSCs)
[8] = read-out: Anti-echinococcus activity % of death, 0.5uM, E. granulosus PSCs, compound at 0.5uM
[9] = read-out: Anti-echinococcus activity % of death, 2uM, E. granulosus PSCs, compound at 2uM
[10] = read-out: Anti-echinococcus activity % of death, 10uM, E. granulosus PSCs, compound at 10uM
[11] = read-out: Anti-echinococcus activity % of death, 50uM, E. granulosus PSCs, compound at 50uM

| SMILES | mortality at 0.5 µM [1] | mortality at 10 µM [2] | mortality at 50 µM [3] | mortality at 2 µM [4] | further results |
| --- | --- | --- | --- | --- | --- |
| C[n+]1cc2c3c(ccc2c2ccc4cc5c(cc4c21)OCO5)OCO3 [Sanguinarium chloride] | 0% | 100% | 100% |  |  |
| OC(CNCC(O)C1CCc2cc(F)ccc2O1)C1CCc2cc(F)ccc2O1 (stereo not drawn) [nebivolol hydrochloride] | 0% | 0% | 100% | 0% |  |
| C/C=C/C/C=C/CCC(=O)[C@H]1O[C@H]1C(N)=O [CERULENIN] | 0% | 0% | 100% | 0% |  |
| NC(CO)(CO)CCc1ccc(Sc2cccc(OCc3ccccc3)c2)cc1Cl [KRP-203] |  |  |  |  | mortality at 0.5 µM [5]: 0%; mortality at 2 µM [5]: 0%; mortality at 10 µM [5]: 0%; mortality at 50 µM [5]: 100% |
| CC(=O)Oc1cc(C)c(OC(C)=O)c2ccccc12 [Vitamin K4, reference compound] |  |  |  |  | MIC90: 8.9 µM (≈ 2.3 µg/mL) |
| CO[C@@H]1[C@H](OC(=O)NC(=O)CCl)CC[C@]2(CO2)[C@H]1[C@@]1(C)O[C@@H]1CC=C(C)C [AGM-1470] | 0% | 40% | 100% | 0% |  |
| CC1CCC(C(C)C)C(OC(=O)C[N+](C)(C)CCCCCCCCCC[N+](C)(C)CC(=O)OC2CC(C)CCC2C(C)C)C1 (stereo not drawn) [Decamethoxine] | 0% | 20% | 100% | 0% |  |
| O=C1NC(=O)/C(=C\c2ccccc2)C2=C1CCCC2 [TESIMIDE] |  |  |  |  | mortality at 0.5 µM [5]: 0%; mortality at 2 µM [5]: 0%; mortality at 10 µM [5]: 0%; mortality at 50 µM [5]: 100% |
| COc1ccc(F)c(F)c1C(=O)c1cnc(NC2CCN(S(C)(=O)=O)CC2)nc1N [RO-4584820] | 0% | 0% | 100% | 0% |  |
| Cc1cc(/N=C(\Nc2nccs2)NC2CCCCC2)c2ccccc2n1 [timegadine] |  |  |  |  | mortality at 0.5 µM [5]: 0%; mortality at 2 µM [5]: 0%; mortality at 10 µM [5]: 0%; mortality at 50 µM [5]: 100% |
| Oc1c(Cl)cc(Cl)cc1Sc1cc(Cl)cc(Cl)c1O [bithionol] | 0% | 0% | 100% | 0% |  |
| Cc1cc(-c2cc(O)ccc2Cl)cc2nnc(Nc3ccc(OCCN4CCCC4)cc3)nc12 [TG 100572 (Hydrochloride)] | 0% | 100% | 100% | 0% |  |
| CC(CN(C)C)Oc1cccc(Br)c1-c1cc2c(c3c1C(=O)N(C)C3=O)c1ccccc1n2C (stereo not drawn) [PH-CBR-2016-001-HVAC-11309-0] | 0% | 0% | 100% | 0% |  |
| O=C1C=CC(O)(c2cc3ccccc3n2S(=O)(=O)c2ccccc2)C=C1 [BW-114] | 0% | 50% | 100% | 0% |  |
| O=C1NCN(c2ccccc2)C12CCN(CCCC(c1ccc(F)cc1)c1ccc(F)cc1)CC2 [Fluspirilene] | 0% | 0% | 100% | 0% |  |
| CSc1ccc2c(c1)N(CCC1CCCCN1C)c1ccccc1S2 (stereo not drawn) [thioridazine] | 0% | 0% | 100% | 0% |  |
| CNc1nc(Nc2ccc(-n3cnc(C)n3)c(OC)c2)nc2c1CC[C@H]2c1ccc(F)cc1 [BMS-932481] |  |  |  |  | mortality at 0.5 µM [5]: 0%; mortality at 2 µM [5]: 0%; mortality at 10 µM [5]: 0%; mortality at 50 µM [5]: 100% |
| CCCCc1oc2ccc(NS(C)(=O)=O)cc2c1C(=O)c1ccc(OCCCN(CCCC)CCCC)cc1 [Dronedarone HCl, reference compound] |  |  |  |  | killing at 0.5 µM: 0%; killing at 2 µM: 0%; killing at 10 µM: 0%; killing at 50 µM [6]: 100%; killing at 50 µM [7]: 100%; MIC90: 18 µM |
| COCCN1CCC(N(Cc2ccc(-c3ccc(C(F)(F)F)cc3)cc2)C(=O)Cn2c(CCc3cccc(F)c3F)nc(=O)c3cccnc32)CC1 [GSK-568859] |  |  |  |  | mortality at 0.5 µM [5]: 0%; mortality at 2 µM [5]: 0%; mortality at 10 µM [5]: 0%; mortality at 50 µM [5]: 100% |
| CCOc1cc2ncc(C#N)c(Nc3ccc(F)c(Cl)c3)c2cc1NC(=O)/C=C/CN(C)C [pelitinib] | 0% | 30% | 100% | 0% |  |

| SMILES | mortality at 0.5 µM [1] | mortality at 10 µM [2] | mortality at 50 µM [3] | mortality at 2 µM [4] | further results |
| --- | --- | --- | --- | --- | --- |
| NS(=O)(=O)C#Cc1ccccc1 [Pifithrin-mu] | 0% | 100% | 100% | 0% |  |
| Fc1ccc(-n2cc(CCCCN3CCC4(CC3)OCc3ccccc34)c3ccccc32)cc1 [Siramesine] |  |  |  |  | mortality at 0.5 µM [8]: 0%; mortality at 2 µM [9]: 0%; mortality at 10 µM [10]: 20%; mortality at 50 µM [11]: 100% |
| Cc1cc(OP(=O)(O)O)c2ccccc2c1OP(=O)(O)O [Menadiol sodium diphosphate] | 0% | 0% | 100% | 0% |  |
| C=CC(=O)Nc1cccc(Oc2nc(Nc3ccc(N4CCN(C)CC4)cc3)nc3ccsc23)c1 [HM-61713] |  |  |  |  | mortality at 0.5 µM [8]: 0%; mortality at 2 µM [9]: 0%; mortality at 10 µM [10]: 0%; mortality at 50 µM [11]: 100% |
| N[C@H]1CC[C@H](Nc2nc(NCc3cccc(I)c3)c3ncn(C4CCCC4)c3n2)CC1 [MDL-106327DA] | 0% | 0% | 100% | 0% |  |
| C[n+]1cc2c3c(ccc2c2ccc4cc5c(cc4c21)OCO5)OCO3 [Sanguinarine chloride, reference compound] |  |  |  |  | killing at 0.5 µM: 0%; killing at 2 µM: 0%; killing at 10 µM: 100%; killing at 50 µM [6]: 100%; killing at 50 µM [7]: 100% |
| CC1(C)C(=O)N=C2C1=C(O)C(=O)c1ccccc12 [BVT-948] | 0% | 100% | 100% | 0% |  |
| CC(C)(C)c1ccc(C(O)CCCN2CCC(C(O)(c3ccccc3)c3ccccc3)CC2)cc1 (stereo not drawn) [Terfenadine, reference compound] |  |  |  |  | MIC90: 23.1 µM (≈ 10.9 µg/mL); mortality at 0.5 µM [8]: 0%; mortality at 2 µM [9]: 0%; mortality at 10 µM [10]: 100%; mortality at 50 µM [11]: 100% |
| Cc1ccccc1-c1cc(N2CCN(C)CC2)ncc1N(C)C(=O)C(C)(C)c1cc(C(F)(F)F)cc(C(F)(F)F)c1 [Netupitant] |  |  |  |  | mortality at 0.5 µM [5]: 0%; mortality at 2 µM [5]: 0%; mortality at 10 µM [5]: 0%; mortality at 50 µM [5]: 100% |
| C[C@@](Cc1ccc(O)c(O)c1)(NN)C(=O)O [Carbidopa] | 0% | 0% | 100% | 0% |  |
| COc1cccc2c1C(=O)c1c(O)c3c(c(O)c1C2=O)C[C@@](O)(C(=O)CO)C[C@@H]3O[C@H]1C[C@H](N)[C@H](O[C@@H]2CCCCO2)[C@H](C)O1 [Pirarubicin, reference compound] |  |  |  |  | killing at 0.5 µM: 100%; killing at 2 µM: 100%; killing at 10 µM: 100%; killing at 50 µM [6]: 100%; killing at 50 µM [7]: 100% |
| C=C1C(=O)O[C@H]2[C@H]1CC/C(C)=C/CC[C@@]1(C)O[C@@H]21 [Parthenolide, reference compound] |  |  |  |  | killing at 0.5 µM: 0%; killing at 2 µM: 0%; killing at 10 µM: 0%; killing at 50 µM [6]: 100%; killing at 50 µM [7]: 100% |
| COc1ccc(CCN(C)CCCOc2ccc(S(=O)(=O)c3c(C(C)C)cn4ccccc34)cc2)cc1OC [FANTOFARONE] | 0% | 0% | 100% | 0% |  |
| C1CCC(C(CC2CCCCN2)C2CCCCC2)CC1 (stereo not drawn) [PERHEXILINE] | 0% | 0% | 100% | 0% |  |
| Cn1ncc(Cl)c1-c1cc(C(=O)N[C@H](CN)Cc2ccc(F)c(F)c2)oc1Cl [Uprosertib] | 0% | 100% | 100% | 0% |  |
| c1ccc(CCCC(Oc2ccccc2OCc2ccccc2)C2=NCCN2)cc1 (stereo not drawn) [MDL 102588] |  |  |  |  | mortality at 0.5 µM [5]: 0%; mortality at 2 µM [5]: 0%; mortality at 10 µM [5]: 0%; mortality at 50 µM [5]: 100% |
| CSc1ccc2c(c1)N(CCC1CCCCN1C)c1ccccc1S2 (stereo not drawn) [Thioridazine hydrochloride, reference compound] |  |  |  |  | killing at 0.5 µM: 0%; killing at 2 µM: 0%; killing at 10 µM: 0%; killing at 50 µM [6]: 100%; killing at 50 µM [7]: 100% |
| c1ccc(SCCCNCCC(c2ccccc2)c2ccccc2)cc1 [tiopropamine] |  |  |  |  | mortality at 0.5 µM [5]: 0%; mortality at 2 µM [5]: 0%; mortality at 10 µM [5]: 0%; mortality at 50 µM [5]: 100% |
| c1cc2c(cc1C1CCCCC1)c1c3n2CCNC3CCC1 (stereo not drawn) [Tetrindole] |  |  |  |  | mortality at 0.5 µM [5]: 0%; mortality at 2 µM [5]: 0%; mortality at 10 µM [5]: 0%; mortality at 50 µM [5]: 100% |
